Results reported in the supplement of paper PMC10290057.

Tested on: HCT116
Test: efficacy (fitted maximal change in viability relative to DMSO control); higher = less cytotoxic (negative = loss of viability)
Settings: 48 h
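Further: Luminescence-based viability readout, five doses per compound, normalized against on-plate DMSO and empty-well controls, followed by dose-response curve fitting for every drug.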

NCc1ccc(OCCCc2sc(-c3ccc4c(c3)/C(=N/Nc3nc5ccccc5s3)CCC4)nc2C(=O)O)cc1 [WEHI-539]
efficacy: 9.49%
